In the assay the test system is SKCa channel. The assay is described as follows: PubChem AID 652083. Conditions: CEREP radioligand binding panel, % inhibition at 10 uM, stronger effect = higher value.

The values that follow come from PubChem BioAssay AID652083 (The Scripps Research Institute Molecular Screening Center, 2013).

The other results are listed elsewhere or left out.

Take `COC(=O)c1cc(Br)cnc1N1CCC(NC2CCCCC2)C(O)C1` (stereo unspecified): the inhibition of specific binding is -24%.
